This data set deals with P2, Ac-GRTGRRDap(Pyr)SYP-amide (unphosphorylated PKA substrate).

For “cAMP-dependent protein kinase (PKA), murine catalytic subunit”, the Km entry is listed as “Km=7.1±1.9 µM” and the Vmax result is on record as “Vmax=8.4±1.2 µmol/min-mg”.

The record behind these values is patent US20080318246.
